This is an account of results in patent US20050175505A1, “Personal monitor to detect exposure to toxic agents” (published 2005).

The chains behind the UniProt entries cited, without tags or fusion partners. Where a name states a change or a piece, a line headed by the entry shows the natural chain unless it says otherwise. Residues count along the entry.
UniProt P06276, 29-602 limits assumed: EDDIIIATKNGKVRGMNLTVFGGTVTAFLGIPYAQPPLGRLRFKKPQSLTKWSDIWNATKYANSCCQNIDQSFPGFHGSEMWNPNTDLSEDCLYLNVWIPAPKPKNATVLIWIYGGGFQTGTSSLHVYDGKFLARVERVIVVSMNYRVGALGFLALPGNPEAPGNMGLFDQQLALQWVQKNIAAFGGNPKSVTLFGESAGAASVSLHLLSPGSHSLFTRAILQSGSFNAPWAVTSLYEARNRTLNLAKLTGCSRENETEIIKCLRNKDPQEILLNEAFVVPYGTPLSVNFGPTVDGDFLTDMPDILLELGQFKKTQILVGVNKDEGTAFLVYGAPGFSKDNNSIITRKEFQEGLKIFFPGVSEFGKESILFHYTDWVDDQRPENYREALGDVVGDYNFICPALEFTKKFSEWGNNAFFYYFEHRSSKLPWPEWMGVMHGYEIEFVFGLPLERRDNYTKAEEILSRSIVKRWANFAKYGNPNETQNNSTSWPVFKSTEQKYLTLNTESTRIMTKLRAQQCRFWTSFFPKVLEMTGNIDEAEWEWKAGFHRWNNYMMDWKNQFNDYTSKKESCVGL
UniProt P22303: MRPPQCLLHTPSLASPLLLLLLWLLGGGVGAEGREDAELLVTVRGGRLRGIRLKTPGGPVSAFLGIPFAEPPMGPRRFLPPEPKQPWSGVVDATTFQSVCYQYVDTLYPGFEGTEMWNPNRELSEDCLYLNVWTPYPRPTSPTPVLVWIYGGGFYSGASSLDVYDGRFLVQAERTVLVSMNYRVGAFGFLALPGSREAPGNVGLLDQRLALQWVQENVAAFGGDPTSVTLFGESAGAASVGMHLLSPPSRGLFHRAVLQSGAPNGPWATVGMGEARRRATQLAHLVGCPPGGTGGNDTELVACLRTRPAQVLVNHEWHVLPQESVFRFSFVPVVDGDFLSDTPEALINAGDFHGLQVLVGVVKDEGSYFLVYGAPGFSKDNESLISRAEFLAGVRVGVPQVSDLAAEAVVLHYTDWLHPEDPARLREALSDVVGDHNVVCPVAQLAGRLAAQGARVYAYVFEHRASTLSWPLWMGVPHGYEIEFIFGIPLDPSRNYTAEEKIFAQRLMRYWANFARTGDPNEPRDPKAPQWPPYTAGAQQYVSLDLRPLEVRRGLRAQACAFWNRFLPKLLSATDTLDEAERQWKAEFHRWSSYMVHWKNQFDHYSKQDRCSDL

In data set [1] the target is T1, plasma cholinesterase (butyrylcholinesterase) (Homo sapiens, UniProt P06276). The conditions noted are these: cited from earlier work.
Data set [2] concerns the target T1, plasma cholinesterase (butyrylcholinesterase). The conditions noted are these: plasma samples treated with quinidine 20 μM; BTC vs AcTC substrate.
For data set [3], the target named is T2, red blood cell cholinesterase (acetylcholinesterase) (Homo sapiens, UniProt P22303). The conditions noted are these: cited from earlier work.
Data set [4] has as its target T2, red blood cell cholinesterase (acetylcholinesterase). The data set is described as follows: Cholinesterase activity in RBC lysate with and without quinidine.
For data set [5] the following is noted: mean of four out of five volunteers showing an increase.

For the compound `C=C[C@H]1C[N@@]2CC[C@H]1C[C@@H]2[C@@H](O)c1ccnc2ccc(OC)cc12`, the “inhibition of plasma cholinesterase activity (general statement)” value in data set [1] was “specifically inhibits plasma cholinesterase activity”. For the same compound, the “inhibitory effect on plasma cholinesterase activity” value in data set [2] was “inhibitory effect was observed only when BTC was used”. In data set [3], the “inhibition of cholinesterase activity in red blood cells (general statement)” value was “does not inhibit”. For the same compound, the “decrease in cholinesterase activity in RBC lysate” value in data set [4] is reported as “only a minute decrease”.
`COc1ccc2[nH]cc(CCNC(C)=O)c2c1`: the “increase in interstitial fluid melatonin after ingestion (mean)” value in data set [5] came to 9.0 ± 6.2 pg/mL.
